# Measured values published in PubChem BioAssay AID1321 (The Scripps Research Institute Molecular Screening Center, 2008).
# Amino acid sequences for entries named in this document (tags omitted).
# UniProt P30291, whole entry K328M: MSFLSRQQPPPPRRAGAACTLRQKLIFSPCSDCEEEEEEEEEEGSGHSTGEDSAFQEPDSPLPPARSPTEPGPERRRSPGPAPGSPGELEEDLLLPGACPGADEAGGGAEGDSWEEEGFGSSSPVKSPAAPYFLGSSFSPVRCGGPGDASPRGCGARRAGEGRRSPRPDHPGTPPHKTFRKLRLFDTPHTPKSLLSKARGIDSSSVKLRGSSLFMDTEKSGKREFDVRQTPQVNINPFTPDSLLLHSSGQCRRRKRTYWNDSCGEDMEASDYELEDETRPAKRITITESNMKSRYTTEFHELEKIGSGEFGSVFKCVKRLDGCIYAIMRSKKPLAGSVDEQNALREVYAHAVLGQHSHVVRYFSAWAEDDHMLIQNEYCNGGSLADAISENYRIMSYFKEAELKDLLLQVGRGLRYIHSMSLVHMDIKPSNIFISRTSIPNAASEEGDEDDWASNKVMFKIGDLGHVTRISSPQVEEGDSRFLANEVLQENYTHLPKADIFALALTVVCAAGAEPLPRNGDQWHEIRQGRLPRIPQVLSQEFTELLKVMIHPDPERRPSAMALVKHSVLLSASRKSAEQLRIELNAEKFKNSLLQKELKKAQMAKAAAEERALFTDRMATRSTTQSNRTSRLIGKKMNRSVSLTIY
# The list shows a part of the results, in another mix than the full data. Some of these compounds have results that are not shown, active ones among them. Calls of active or inactive are those of the source.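 The calls were made as follows: active = activation above the mean of all tested compounds plus 3 SD, set per screening run (cut at about 8.8% in these data); inactive = the rest.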
# Target: Wee1-like protein kinase (Homo sapiens) (UniProt P30291)
# Experiment: Wee1 degradation inhibitors, primary screen, cell-based, HeLa, Wee1K328M-luciferase, luminescence (AID 1321);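 also: cells exposed to compound for 20 h before luminescence read; 0% = DMSO alone and 100% = MG132 at 30 µM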
# Settings: HeLa Luc-Wee1K328M stability, at 5 µM, hits give high values, 100% = proteasome inhibitor MG132 effect
row,Structure (SMILES),reporter increase
1,O=C(NCC1(N2CCCCC2)CCCCC1)c1cc([N+](=O)[O-])ccc1Cl,inactive: -0.32%
2,CC(C)N1C(=O)CC2(CCN(CCOC(=O)C(O)(c3ccccc3)c3ccccc3)CC2)C1=O,inactive: -1.28%
3,CCN(CC)CC(C)C(C)OC(=O)C(O)(c1ccccc1)c1ccccc1 (stereo unspecified),inactive: 0.93%
4,CN(C)C1CCCC1OC(=O)C(O)(c1ccccc1)c1ccccc1 (stereo unspecified),inactive: 1.13%
5,Cc1ccccc1C(=O)NCC1(N2CCCCC2)CCCCC1,inactive: -0.59%
6,CCN1CCCC(OC(=O)C2(O)c3ccccc3C=Cc3ccccc32)C1 (stereo unspecified),inactive: 6.55%
7,C=CCN1CCN(CCOC(=O)C(O)(c2ccccc2)c2ccccc2)CC1,inactive: -3.36%
8,COc1cccc(C(=O)NCC2(N3CCCCC3)CCCCC2)c1,inactive: -1.13%
9,O=C(OC1CN2CCC1CC2)C(CO)(c1ccccc1)c1ccccc1 (stereo unspecified),inactive: 3.98%
10,CN(C)c1cccc(C(=O)NCC2(N(C)C)CCCCC2)c1,inactive: 2.03%
11,COc1ccc(Br)c(C(=O)NCC2(N3CCCCC3)CCCCC2)c1,inactive: 6.67%
